Data as given in patent US20260384438A1, “PYRROLOPYRIMIDINE CARBOXAMIDES” (published 2026).

By UniProt entry, the sequences of proteins in these tests, tags left out. Residues count along the entry.
UniProt P27037, 20-513 limits assumed: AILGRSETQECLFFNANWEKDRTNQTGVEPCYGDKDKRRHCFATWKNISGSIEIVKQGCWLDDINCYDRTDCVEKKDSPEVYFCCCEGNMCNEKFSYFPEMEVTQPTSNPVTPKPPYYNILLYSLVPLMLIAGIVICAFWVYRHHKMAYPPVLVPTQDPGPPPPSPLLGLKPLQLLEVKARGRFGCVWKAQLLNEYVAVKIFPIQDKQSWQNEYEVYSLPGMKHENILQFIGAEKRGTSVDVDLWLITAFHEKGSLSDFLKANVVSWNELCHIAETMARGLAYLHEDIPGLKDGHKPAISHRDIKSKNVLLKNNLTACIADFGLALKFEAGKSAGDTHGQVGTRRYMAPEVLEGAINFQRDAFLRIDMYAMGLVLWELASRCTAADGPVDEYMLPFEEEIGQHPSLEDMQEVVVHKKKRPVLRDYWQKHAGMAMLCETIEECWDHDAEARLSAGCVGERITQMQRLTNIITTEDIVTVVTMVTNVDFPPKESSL
UniProt P55263, whole entry: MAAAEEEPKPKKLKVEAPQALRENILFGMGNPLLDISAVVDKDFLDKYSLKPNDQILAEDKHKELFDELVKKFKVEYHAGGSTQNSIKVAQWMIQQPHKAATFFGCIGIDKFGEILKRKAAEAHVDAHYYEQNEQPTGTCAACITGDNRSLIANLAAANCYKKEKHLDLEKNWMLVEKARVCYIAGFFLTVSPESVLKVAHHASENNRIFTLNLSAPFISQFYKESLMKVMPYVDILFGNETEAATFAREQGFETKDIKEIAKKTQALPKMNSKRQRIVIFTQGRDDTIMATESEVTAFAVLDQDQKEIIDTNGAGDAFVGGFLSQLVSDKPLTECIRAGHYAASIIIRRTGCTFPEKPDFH
UniProt Q13554, whole entry: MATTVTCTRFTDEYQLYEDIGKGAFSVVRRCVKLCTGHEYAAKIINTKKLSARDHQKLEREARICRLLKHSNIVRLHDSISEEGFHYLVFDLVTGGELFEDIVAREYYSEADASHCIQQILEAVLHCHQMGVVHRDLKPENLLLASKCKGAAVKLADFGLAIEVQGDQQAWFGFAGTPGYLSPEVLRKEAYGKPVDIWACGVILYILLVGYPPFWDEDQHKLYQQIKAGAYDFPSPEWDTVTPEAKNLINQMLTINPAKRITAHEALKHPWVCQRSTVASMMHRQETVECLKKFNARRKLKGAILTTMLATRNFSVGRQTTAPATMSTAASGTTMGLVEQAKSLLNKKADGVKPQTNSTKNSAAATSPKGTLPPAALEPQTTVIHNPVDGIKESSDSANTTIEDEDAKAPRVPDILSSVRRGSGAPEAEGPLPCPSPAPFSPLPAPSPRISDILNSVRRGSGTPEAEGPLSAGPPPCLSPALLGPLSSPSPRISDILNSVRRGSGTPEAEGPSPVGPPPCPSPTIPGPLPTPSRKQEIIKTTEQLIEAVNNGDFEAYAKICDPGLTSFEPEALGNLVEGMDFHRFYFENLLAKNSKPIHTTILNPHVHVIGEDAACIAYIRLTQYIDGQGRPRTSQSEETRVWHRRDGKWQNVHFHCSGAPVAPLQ
UniProt Q96RR4, whole entry: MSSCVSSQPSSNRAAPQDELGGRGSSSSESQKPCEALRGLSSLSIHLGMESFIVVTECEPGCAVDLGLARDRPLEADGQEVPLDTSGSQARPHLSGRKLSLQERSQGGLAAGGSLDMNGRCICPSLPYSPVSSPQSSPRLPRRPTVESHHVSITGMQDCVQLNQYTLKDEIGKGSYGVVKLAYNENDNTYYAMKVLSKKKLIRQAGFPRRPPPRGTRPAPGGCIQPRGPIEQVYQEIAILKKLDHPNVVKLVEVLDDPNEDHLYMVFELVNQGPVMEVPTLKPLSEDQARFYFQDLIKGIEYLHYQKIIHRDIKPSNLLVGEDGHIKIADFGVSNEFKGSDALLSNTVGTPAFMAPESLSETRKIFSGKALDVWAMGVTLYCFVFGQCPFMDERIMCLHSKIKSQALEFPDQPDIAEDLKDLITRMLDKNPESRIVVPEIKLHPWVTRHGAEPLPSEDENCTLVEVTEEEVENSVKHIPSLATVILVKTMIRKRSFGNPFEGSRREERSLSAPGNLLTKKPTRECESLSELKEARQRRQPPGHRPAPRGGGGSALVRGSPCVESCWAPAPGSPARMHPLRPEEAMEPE
UniProt P51617, whole entry: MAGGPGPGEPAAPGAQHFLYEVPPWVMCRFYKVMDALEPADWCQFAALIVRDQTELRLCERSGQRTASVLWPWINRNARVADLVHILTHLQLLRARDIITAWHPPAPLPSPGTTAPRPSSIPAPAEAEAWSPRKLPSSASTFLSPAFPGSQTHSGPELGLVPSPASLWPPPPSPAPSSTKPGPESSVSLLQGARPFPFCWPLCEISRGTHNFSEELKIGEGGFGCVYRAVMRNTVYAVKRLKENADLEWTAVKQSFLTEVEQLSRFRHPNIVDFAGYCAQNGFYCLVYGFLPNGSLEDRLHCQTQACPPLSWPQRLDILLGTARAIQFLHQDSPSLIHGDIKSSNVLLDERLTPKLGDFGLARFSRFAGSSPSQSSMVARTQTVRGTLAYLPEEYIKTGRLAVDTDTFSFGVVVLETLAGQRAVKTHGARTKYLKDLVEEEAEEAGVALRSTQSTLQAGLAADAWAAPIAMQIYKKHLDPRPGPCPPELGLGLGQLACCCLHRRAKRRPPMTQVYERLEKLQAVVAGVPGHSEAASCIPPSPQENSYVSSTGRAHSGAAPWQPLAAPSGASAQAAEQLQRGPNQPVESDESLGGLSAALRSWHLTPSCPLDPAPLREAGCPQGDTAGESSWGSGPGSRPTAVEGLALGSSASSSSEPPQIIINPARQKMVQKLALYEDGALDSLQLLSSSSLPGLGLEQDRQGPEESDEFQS
UniProt P52564, whole entry: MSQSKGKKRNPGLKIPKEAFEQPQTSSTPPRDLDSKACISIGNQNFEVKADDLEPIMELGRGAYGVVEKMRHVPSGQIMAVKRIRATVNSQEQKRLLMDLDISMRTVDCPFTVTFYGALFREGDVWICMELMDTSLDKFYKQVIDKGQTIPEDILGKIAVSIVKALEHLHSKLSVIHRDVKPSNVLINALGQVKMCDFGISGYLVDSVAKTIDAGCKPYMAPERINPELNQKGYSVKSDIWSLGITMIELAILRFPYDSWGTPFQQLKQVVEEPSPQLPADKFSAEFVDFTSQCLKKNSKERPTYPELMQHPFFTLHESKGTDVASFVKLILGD
UniProt Q02779, whole entry: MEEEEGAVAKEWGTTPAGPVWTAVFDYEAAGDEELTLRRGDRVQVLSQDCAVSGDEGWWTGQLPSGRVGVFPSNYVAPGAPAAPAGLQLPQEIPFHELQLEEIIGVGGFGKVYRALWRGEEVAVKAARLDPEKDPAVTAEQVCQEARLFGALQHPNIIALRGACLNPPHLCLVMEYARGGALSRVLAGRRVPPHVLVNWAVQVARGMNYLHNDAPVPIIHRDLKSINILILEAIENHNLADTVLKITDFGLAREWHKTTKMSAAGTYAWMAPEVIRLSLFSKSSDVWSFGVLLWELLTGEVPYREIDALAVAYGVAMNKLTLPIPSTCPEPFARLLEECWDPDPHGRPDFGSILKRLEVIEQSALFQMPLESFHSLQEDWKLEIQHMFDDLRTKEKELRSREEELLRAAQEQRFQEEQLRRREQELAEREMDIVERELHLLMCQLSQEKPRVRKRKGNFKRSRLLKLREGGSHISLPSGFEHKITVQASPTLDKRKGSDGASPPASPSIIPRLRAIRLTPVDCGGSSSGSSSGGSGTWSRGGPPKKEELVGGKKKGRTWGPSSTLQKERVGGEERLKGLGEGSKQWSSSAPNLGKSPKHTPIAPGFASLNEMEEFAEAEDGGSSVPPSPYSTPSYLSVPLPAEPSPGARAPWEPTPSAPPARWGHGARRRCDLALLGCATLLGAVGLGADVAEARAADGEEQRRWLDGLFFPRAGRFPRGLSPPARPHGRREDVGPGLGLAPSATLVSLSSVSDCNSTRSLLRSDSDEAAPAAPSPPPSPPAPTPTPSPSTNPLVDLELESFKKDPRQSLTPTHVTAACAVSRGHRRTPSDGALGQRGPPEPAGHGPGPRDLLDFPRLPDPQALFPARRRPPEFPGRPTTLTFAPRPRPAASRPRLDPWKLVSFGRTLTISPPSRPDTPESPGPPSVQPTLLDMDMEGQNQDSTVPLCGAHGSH
UniProt Q12851, whole entry: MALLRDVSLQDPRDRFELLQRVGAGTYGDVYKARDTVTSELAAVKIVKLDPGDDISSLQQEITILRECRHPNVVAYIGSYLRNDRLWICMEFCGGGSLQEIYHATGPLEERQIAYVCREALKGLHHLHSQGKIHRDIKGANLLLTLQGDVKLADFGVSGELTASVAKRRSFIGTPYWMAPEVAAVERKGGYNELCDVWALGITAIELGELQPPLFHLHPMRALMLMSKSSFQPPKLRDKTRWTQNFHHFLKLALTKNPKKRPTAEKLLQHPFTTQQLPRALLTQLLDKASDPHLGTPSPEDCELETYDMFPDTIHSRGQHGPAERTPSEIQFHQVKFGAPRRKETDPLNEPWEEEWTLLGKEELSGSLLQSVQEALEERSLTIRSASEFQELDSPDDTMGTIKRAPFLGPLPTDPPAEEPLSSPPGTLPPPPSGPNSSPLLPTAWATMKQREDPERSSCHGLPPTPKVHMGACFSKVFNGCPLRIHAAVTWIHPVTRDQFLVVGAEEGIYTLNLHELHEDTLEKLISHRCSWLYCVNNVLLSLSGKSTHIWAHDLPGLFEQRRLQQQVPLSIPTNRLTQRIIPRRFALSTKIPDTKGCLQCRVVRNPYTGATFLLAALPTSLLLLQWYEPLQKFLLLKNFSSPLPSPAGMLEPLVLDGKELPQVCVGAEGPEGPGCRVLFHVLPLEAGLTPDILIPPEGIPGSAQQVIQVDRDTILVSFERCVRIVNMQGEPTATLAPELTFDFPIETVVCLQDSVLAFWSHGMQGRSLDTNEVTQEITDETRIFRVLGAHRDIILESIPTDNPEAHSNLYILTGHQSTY
UniProt P49137, whole entry: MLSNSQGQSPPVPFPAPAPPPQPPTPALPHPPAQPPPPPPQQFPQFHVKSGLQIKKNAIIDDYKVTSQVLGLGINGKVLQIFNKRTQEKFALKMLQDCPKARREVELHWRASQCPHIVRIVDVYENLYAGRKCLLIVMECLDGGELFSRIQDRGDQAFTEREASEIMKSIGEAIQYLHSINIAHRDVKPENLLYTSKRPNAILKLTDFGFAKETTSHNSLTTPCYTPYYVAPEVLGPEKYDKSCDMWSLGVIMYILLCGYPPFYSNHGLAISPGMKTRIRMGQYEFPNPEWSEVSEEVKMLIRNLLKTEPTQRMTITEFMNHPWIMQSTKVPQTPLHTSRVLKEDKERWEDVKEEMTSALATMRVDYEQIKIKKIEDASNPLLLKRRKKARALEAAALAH
UniProt P23443, whole entry: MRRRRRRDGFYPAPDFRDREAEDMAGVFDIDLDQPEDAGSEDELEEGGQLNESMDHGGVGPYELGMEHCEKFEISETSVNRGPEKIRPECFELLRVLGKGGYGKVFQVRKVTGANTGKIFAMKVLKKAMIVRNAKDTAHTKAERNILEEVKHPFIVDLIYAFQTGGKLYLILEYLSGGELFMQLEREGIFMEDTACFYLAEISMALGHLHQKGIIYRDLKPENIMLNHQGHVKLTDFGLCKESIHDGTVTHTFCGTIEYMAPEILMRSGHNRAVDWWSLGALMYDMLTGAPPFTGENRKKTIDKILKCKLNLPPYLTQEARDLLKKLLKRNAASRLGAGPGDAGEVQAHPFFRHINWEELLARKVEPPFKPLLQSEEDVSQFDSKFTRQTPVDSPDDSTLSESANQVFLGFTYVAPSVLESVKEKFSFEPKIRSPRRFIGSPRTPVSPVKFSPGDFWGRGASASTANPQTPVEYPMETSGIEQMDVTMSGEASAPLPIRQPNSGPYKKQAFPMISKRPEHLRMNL
UniProt Q8TDR2, whole entry: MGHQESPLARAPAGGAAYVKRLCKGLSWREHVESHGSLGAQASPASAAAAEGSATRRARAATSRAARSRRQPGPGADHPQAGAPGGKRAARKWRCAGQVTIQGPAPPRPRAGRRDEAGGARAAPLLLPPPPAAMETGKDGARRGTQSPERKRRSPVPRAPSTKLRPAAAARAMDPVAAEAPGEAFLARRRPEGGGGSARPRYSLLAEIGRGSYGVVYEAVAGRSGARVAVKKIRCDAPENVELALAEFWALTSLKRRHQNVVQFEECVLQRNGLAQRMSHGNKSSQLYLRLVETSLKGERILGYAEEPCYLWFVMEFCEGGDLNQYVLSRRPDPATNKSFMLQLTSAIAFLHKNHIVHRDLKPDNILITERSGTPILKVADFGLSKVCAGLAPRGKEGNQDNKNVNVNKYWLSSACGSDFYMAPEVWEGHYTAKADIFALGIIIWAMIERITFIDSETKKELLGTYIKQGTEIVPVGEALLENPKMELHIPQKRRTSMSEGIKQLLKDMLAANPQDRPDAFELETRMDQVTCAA

Columns and labels:
Assay in all cases: KAT chemical proteomics
[1] = target: ACVR1B (Homo sapiens, UniProt P36896)
[2] = target: ACVR2A (Homo sapiens, UniProt P27037)
[3] = target: ADK (Homo sapiens, UniProt P55263)
[4] = test system: AKAP13
[5] = target: AKT1 (Homo sapiens, UniProt P31749)
[6] = target: ALK (Homo sapiens, UniProt Q9UM73)
[7] = target: BMPR1A (Homo sapiens, UniProt P36894)
[8] = target: BUB1B (Homo sapiens, UniProt O60566)
[9] = target: CAMK2A (Homo sapiens, UniProt Q9UQM7)
[10] = target: CAMK2B (Homo sapiens, UniProt Q13554)
[11] = target: CAMKK2 (Homo sapiens, UniProt Q96RR4)
[12] = target: CDK4 (Homo sapiens, UniProt P11802)
[13] = target: DCAKD (Homo sapiens, UniProt Q8WVC6)
[14] = target: EPHA6 (Homo sapiens, UniProt Q9UF33)
[15] = target: FGFR3 (Homo sapiens, UniProt P22607)
[16] = target: FGR (Homo sapiens, UniProt P09769)
[17] = target: GK (Homo sapiens, UniProt P32189)
[18] = test system: GTF2H4
[19] = target: HK1 (Homo sapiens, UniProt P19367)
[20] = target: IRAK1 (Homo sapiens, UniProt P51617)
[21] = target: MAP2K6 (Homo sapiens, UniProt P52564)
[22] = target: MAP3K10 (Homo sapiens, UniProt Q02779)
[23] = target: MAP4K2 (Homo sapiens, UniProt Q12851)
[24] = target: MAPKAPK2 (Homo sapiens, UniProt P49137)
[25] = target: MTOR (Homo sapiens, UniProt P42345)
[26] = target: NEK6 (Homo sapiens, UniProt Q9HC98)
[27] = target: NLK (Homo sapiens, UniProt Q9UBE8)
[28] = target: PIM1 (Homo sapiens, UniProt P11309)
[29] = target: PLK1 (Homo sapiens, UniProt P53350)
[30] = target: PRKD3 (Homo sapiens, UniProt O94806)
[31] = target: RET (Homo sapiens, UniProt P07949)
[32] = target: RPS6KA1 (Homo sapiens, UniProt Q15418)
[33] = target: RPS6KA6 (Homo sapiens, UniProt Q9UK32)
[34] = target: RPS6KB1 (Homo sapiens, UniProt P23443)
[35] = target: SIK3 (Homo sapiens, UniProt Q9Y2K2)
[36] = target: STK35 (Homo sapiens, UniProt Q8TDR2)
[37] = target: STK4 (Homo sapiens, UniProt Q13043)
[38] = target: TBK1 (Homo sapiens, UniProt Q9UHD2)
[39] = target: TEC (Homo sapiens, UniProt P42680)
[40] = test system: TMEM11
[41] = target: YES1 (Homo sapiens, UniProt P07947)

Measured: RB50

Cc1nc(C(F)(F)F)c2c(C(N)=O)c(N)n(-c3c(C)ccc(O)c3C)c2n1 (single isomer, unassigned)
20.7 nM: [1]
387 nM: [16]
62.7 nM: [2]
46.6 nM: [7]
>50 µM: all other assays above
